Laboratory results: patent US10214546B2, “Btk inhibitors” (MERCK SHARP & DOHME CORP., priority 2014, dated 2019)

Protein sequences, listed by entry. Tags and fused reporters are not part of them. Lines headed by an entry give the natural chain unless they say otherwise; changes in a name come on top.
UniProt Q06187: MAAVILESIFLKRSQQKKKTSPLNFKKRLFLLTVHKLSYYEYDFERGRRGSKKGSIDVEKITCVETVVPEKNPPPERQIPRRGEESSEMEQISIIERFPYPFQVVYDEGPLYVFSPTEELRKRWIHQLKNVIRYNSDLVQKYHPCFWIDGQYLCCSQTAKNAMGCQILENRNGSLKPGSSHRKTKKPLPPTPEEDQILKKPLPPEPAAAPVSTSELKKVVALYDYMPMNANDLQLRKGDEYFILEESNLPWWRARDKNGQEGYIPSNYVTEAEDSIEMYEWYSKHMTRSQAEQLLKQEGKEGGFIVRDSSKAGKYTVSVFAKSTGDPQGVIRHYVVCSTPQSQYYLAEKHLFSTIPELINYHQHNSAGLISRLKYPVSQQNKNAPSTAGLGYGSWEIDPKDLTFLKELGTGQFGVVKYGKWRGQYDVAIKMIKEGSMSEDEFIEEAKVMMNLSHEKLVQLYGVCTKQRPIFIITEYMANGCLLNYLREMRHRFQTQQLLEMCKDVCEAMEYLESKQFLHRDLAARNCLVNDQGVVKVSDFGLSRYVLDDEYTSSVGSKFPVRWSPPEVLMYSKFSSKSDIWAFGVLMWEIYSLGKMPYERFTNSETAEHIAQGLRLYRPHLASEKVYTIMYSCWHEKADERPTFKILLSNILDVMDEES

Target: BTK enzyme (recombinant full-length BTK, hBTK) (Homo sapiens (Human), UniProt Q06187)
Assay: BTK enzymatic activity LANCE TR-FRET assay
Assay type: biochemical
Conditions: 50 pM hBTK, 25 μM ATP, 2 μM biotin-A5-peptide; compound range 1 μM to 0.017 nM; read-out: BTK binding IC50
Experimental: Btk Enzyme Activity Assay Methods
BTK enzymatic activity was determined with the LANCE (Lanthanide Chelate Excite) TR-FRET (Time-resolved fluorescence resonance energy transfer) assay. […] To each well of a black non-binding surface Corning 384-well microplate (Corning Catalog #3820), 5 nL of compound (2000 fold dilution in final assay volume of 10 μL) was dispensed, followed by the addition of 7.5 μL of 1× kinase buffer (50 mM Hepes 7.5, 10 mM MgCl2, 0.01% Brij-35, 1 mM EGTA, 0.05% BSA & 1 mM DTT) containing 5.09 pg/μL (66.67 pM) of BTK enzyme (recombinant protein from baculovirus-transfected Sf9 cells: full-length BTK, 6HIS-tag cleaved). […] After 60 minutes incubation with detection reagents, reaction plates were read on a PerkinElmer EnVision plate reader using standard TR-FRET protocol. […] Fluorescence intensity at both 665 nm (acceptor) and 615 nm (donor) are measured and a TR-FRET ratio calculated for each well (acceptor intensity/donor intensity). IC50 values were determined by 4 parameter robust fit of TR-FRET ratio values vs. (Log10) compound concentrations.
The following Table 4 provides specific IC50 values for all the examples. The IC50 values set forth below were determined according to Assay method described above.

`COc1cc([C@@](O)(c2ccccc2)C(F)(F)F)ccc1-c1nc([C@@H]2CC[C@H]3CCC(=O)N3C2)n2ccnc(N)c12` [Example 33, (6R,8aS)-6-(8-amino-1-{2-methoxy-4-[(1S)-2,2,2-trifluoro-1-hydroxy-1-phenylethyl]phenyl}imidazo[1,5-a]pyrazin-3-yl)hexahydroindolizin-3(2H)-one] gave an IC50 of 0.54 nM.
